Measured affinities in a library of Ab-14 light chain variants

From the AlphaSeq antibody data of Li et al. 2023 (doi:10.1038/s41467-023-39022-2), copy in the FLAb collection.

The target is the same throughout: PDVDLGDISGINAS, from the HR2 region of SARS-CoV-2 spike.

Ab-14 is the parent antibody, in scFv form: VH, then a 15-residue (Gly4Ser)3 linker, then VL. The heavy chain is unchanged in all variants.
VH: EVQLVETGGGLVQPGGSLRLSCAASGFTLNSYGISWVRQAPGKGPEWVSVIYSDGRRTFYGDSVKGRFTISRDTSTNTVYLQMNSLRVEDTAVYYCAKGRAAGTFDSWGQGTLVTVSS
VL: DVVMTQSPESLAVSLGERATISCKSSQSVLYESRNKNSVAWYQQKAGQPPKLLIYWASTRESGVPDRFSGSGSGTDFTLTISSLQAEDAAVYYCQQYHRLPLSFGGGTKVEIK

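The parent was found by panning a naive human phage display library on the peptide. These sequences belong to a second round, designed from the earlier measurements on random variants of the parent. Their group label is 14L_Ctrl (Ctrl: baseline library sampled from a position-specific scoring matrix, with some repeated check sequences). The scFvs were displayed on barcoded MATa yeast, the peptide on MATalpha yeast. Pairs that bind mate more often; barcode pairs of the diploids are counted by sequencing. Scores were corrected for input abundance and mapped to Kd with protein pairs of known affinity run in the same pool. The assay was run in six technical replicates.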

Each variant is given by its three light chain CDRs, as the data file delimits them; those of the parent are KSSQSVLYESRNKNSVA, WASTRES, QQYHRLPLS.
Numbers give log10(Kd / nM), so 0 is 1 nM and 3 is 1 µM. Smaller is tighter.
A mean of the replicates is given; it leaves out those without a signal.
An entry "nd" has no value in the source: the pair was not observed among the diploids in that replicate. This suggests poor binding but is not conclusive.
The authors' rule: three or more of the six replicates give a measured affinity, fewer mean a poor binder.

{"CDR-L1": "KSSQSGLYESRNKNSVA", "CDR-L2": "EASTREA", "CDR-L3": "QQYVDLPLS", "log10 Kd, replicates": "0.54 / 0.25 / 0.34 / 0.12 / 0.47 / 0.74", "mean, log10 nM": "0.41", "control signals": "0/18"}
{"CDR-L1": "KQSQSVTYESSNKNPVA", "CDR-L2": "WAYTRES", "CDR-L3": "QQYARLPLS", "log10 Kd, replicates": "nd / 3.10 / 2.78 / nd / nd / nd", "mean, log10 nM": "2.94", "control signals": "0/18"}
{"CDR-L1": "KISQSGLYESRNKNSVA", "CDR-L2": "WASTREQ", "CDR-L3": "QQYHRLPLS", "log10 Kd, replicates": "0.43 / 0.39 / 0.47 / 0.13 / 0.12 / 0.46", "mean, log10 nM": "0.33", "control signals": "0/18"}
{"CDR-L1": "KSSQSVLYLSSNSNSVA", "CDR-L2": "WASTRNE", "CDR-L3": "QQYHRLPLS", "log10 Kd, replicates": "1.27 / 1.52 / 1.38 / nd / 0.99 / 1.84", "mean, log10 nM": "1.40", "control signals": "0/18"}
{"CDR-L1": "KSNQSVLGEERNKNSVA", "CDR-L2": "NASTRES", "CDR-L3": "QQYHRLPLS", "log10 Kd, replicates": "0.50 / 0.78 / 0.49 / 0.20 / 0.30 / 0.47", "mean, log10 nM": "0.46", "control signals": "1/18 (2.68)"}
{"CDR-L1": "VSSQSVLYESRNQNSVA", "CDR-L2": "WASIRES", "CDR-L3": "QQSHRLPLS", "log10 Kd, replicates": "nd / nd / nd / nd / nd / nd", "mean, log10 nM": "nd", "control signals": "0/18"}
{"CDR-L1": "KSSQSVLTESRNKNSVN", "CDR-L2": "QASTRES", "CDR-L3": "QQYHRLPLS", "log10 Kd, replicates": "nd / nd / nd / nd / nd / 2.97", "mean, log10 nM": "2.97", "control signals": "1/18 (2.85)"}
{"CDR-L1": "KSSQSVLNESLNDNSCA", "CDR-L2": "WASTRVE", "CDR-L3": "NQYVRLPLS", "log10 Kd, replicates": "nd / nd / nd / nd / 1.95 / 1.81", "mean, log10 nM": "1.88", "control signals": "0/18"}
{"CDR-L1": "KSSQPNLYESENKNSVA", "CDR-L2": "YASTRES", "CDR-L3": "PQRDRLPLS", "log10 Kd, replicates": "nd / 0.31 / 0.52 / 2.12 / 0.87 / 0.48", "mean, log10 nM": "0.86", "control signals": "1/18 (1.93)"}
{"CDR-L1": "KSSQSVDYNNRNKNSVA", "CDR-L2": "SASTRES", "CDR-L3": "QPYHRLPFS", "log10 Kd, replicates": "0.85 / 1.01 / 0.93 / 0.69 / 1.46 / 1.53", "mean, log10 nM": "1.08", "control signals": "0/18"}
{"CDR-L1": "KMFQSVLYESRNKNPVA", "CDR-L2": "WASTRES", "CDR-L3": "QQYHRLPLS", "log10 Kd, replicates": "nd / nd / nd / nd / nd / 2.41", "mean, log10 nM": "2.41", "control signals": "0/18"}
{"CDR-L1": "KSSQSVLYESRNKNSVA", "CDR-L2": "EASSRES", "CDR-L3": "QQYHRLPLS", "log10 Kd, replicates": "nd / nd / 1.71 / nd / nd / nd", "mean, log10 nM": "1.71", "control signals": "0/18"}
{"CDR-L1": "KARQSELYEERNKNSVA", "CDR-L2": "WASTRVS", "CDR-L3": "QQYHRTPLS", "log10 Kd, replicates": "nd / nd / nd / nd / nd / nd", "mean, log10 nM": "nd", "control signals": "0/18"}
{"CDR-L1": "KSSQGVVYESTNKNSVA", "CDR-L2": "NASTRES", "CDR-L3": "QQYHRLPLS", "log10 Kd, replicates": "1.03 / 0.78 / 1.06 / 0.88 / 1.45 / 1.23", "mean, log10 nM": "1.07", "control signals": "2/18 (3.42)"}
{"CDR-L1": "KSSQSVLTQSFNRNSVA", "CDR-L2": "WASTRES", "CDR-L3": "QQYHTLPLS", "log10 Kd, replicates": "1.01 / 1.26 / 1.25 / 1.27 / 1.32 / 1.64", "mean, log10 nM": "1.29", "control signals": "1/18 (2.55)"}
{"CDR-L1": "KLSQSVLYESSNKNSVA", "CDR-L2": "AASTRES", "CDR-L3": "QQYHRLPLS", "log10 Kd, replicates": "0.46 / 0.12 / 0.13 / 0.14 / 0.23 / 0.29", "mean, log10 nM": "0.23", "control signals": "1/18 (2.51)"}
{"CDR-L1": "KSSQSSLYESRNKNSVA", "CDR-L2": "GASTRES", "CDR-L3": "LQYHRLPLS", "log10 Kd, replicates": "nd / nd / 1.89 / nd / nd / nd", "mean, log10 nM": "1.89", "control signals": "0/18"}
{"CDR-L1": "KSSQSVLYESRNKNSVA", "CDR-L2": "EASTRHS", "CDR-L3": "QQYHRLPCS", "log10 Kd, replicates": "1.27 / 1.75 / 1.09 / 1.33 / 1.74 / 1.58", "mean, log10 nM": "1.46", "control signals": "0/18"}
{"CDR-L1": "HSSQSVLYESSNKNSVA", "CDR-L2": "WASTRES", "CDR-L3": "QQYHRLPLS", "log10 Kd, replicates": "-0.14 / 1.29 / 0.24 / 1.35 / 0.52 / 0.99", "mean, log10 nM": "0.71", "control signals": "0/18"}
{"CDR-L1": "KFSQTVLYESRNLNSVA", "CDR-L2": "GAATTES", "CDR-L3": "QQYARLPLS", "log10 Kd, replicates": "0.51 / -0.05 / 0.18 / 0.03 / 0.39 / -0.02", "mean, log10 nM": "0.17", "control signals": "0/18"}

Three control strains display no target. For all light chain designs, 4% of the pairings with them gave a signal, with a median of 2.64 and one signal in twenty below 1.59, so weak values seen in few replicates may be background. Also given: how often the same scFv was detected with the empty control strains, with their mean in brackets.
A sequence measured in both rounds can read differently, since the two assays cover different ranges.